From PubChem BioAssay
GIV Gai3 FP: GIV-Galpha-i interaction inhibition; AID 1224905; 210,000 tested, 0.42% active; Galpha-i3/FITC-GIV peptide fluorescence polarization, 90 min; stronger effect = lower value; scaled: aluminum fluoride 0%, vehicle 100%; percent of control (FP), % (concentration not given with the values);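 active = replicate mean at 85% of control or lower, very high polarization wells dropped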;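 also: wells of about 15 µL received 100 nL stock; the first replicate is given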
GIV Gai FP conf: GIV-Galpha-i3 inhibition, FP confirmation | fluorescence polarization, mP at 100 µM | 580 compounds, 38% hits | AID 1259350 | shares compounds with GIV Gai3 FP | FITC-GIV peptide binding to Galphai3, fluorescence polarization; stronger effect = lower value;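 active = inhibition score of 15 or more, meaning 100 minus mean polarization as percent of control over three replicates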
GIV-Gai AS conf: confirmation of inhibitors of GIV binding to human Galpha-i3. shares compounds with GIV Gai3 FP. AlphaScreen Galphai3-GIV binding, purified proteins, 90 min; stronger effect = lower value. AlphaScreen counts at 100 µM. 580 compounds, 39% hits. AID 1259351;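 active = inhibition score at or above a set limit, where the score is 100 minus the three-replicate mean percent of control signal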
Active calls of the source: *. Shown is part of a subset that was picked to be rich in hits.

Screening CN1CCc2c(C#N)c(Cl)nc(NCc3ccccc3)c2C1 returned GIV Gai3 FP 101.4.
Screening CN1CCc2c(C#N)c(N)n(N)c(=S)c2C1 returned GIV Gai3 FP -103.0*.
`COc1cc(OC)cc(C(=O)N2CCC3(C2)C(=O)N(C)c2ccc(OC)cc23)c1` (centres undefined) gave GIV Gai3 FP 106.2.
`C#CCN1CCCC2(CCOC(C)(CC)C2)C1` (centres undefined) gave GIV Gai3 FP 96.6.
Screening CC12CC[C@H]3[C@@H](CCC4(O)C[C@H](O)CCC34/C=N/NC(N)=O)C1(O)CCC2C1=CC(=O)OC1 (some centres undefined) returned GIV Gai3 FP 102.2.
For N#CC(C#N)=Cc1ccc(-c2ccccc2)o1 the results were GIV Gai3 FP -0.4*.
For Cc1ccc(C=C(C#N)C#N)o1 the results were GIV Gai3 FP 103.7.
CSc1ccc(C=C(C#N)C#N)s1 was read as GIV Gai3 FP 105.3.
Screening ClCc1nc2ccccc2[nH]1 returned GIV Gai3 FP 149.3.
For CCN1C(=O)NC(=O)/C(=C\c2cn(CC(=O)O)c3ccccc23)C1=O the results were GIV Gai3 FP 110.2.
O=C1NC(=O)N(c2ccccc2F)C(=O)/C1=C/c1cn(CC(=O)N2CCOCC2)c2ccccc12 was read as GIV Gai3 FP 102.9.
COC(=O)Cn1cc(C=C2C(=O)N(C)C(=O)N(C)C2=O)c2ccccc21 was read as GIV Gai3 FP -2.1*.
Screening N#CC1=CN(c2ccc(F)c(F)c2)c2cccc(F)c2S1(=O)=O returned GIV Gai3 FP 101.8.
`COc1cccc2c1NC(c1ccc([N+](=O)[O-])cc1)C1CC(Sc3ccccc3[N+](=O)[O-])C(Cl)C21` (centres undefined) gave GIV Gai3 FP 103.9.
O=c1ccc2[nH]cc(C3=CCNCC3)c2[nH]1 was read as GIV Gai3 FP 106.9.
`C1=C(c2c[nH]c3ccccc23)CCNC1` gave GIV Gai3 FP -22.5*.
c1ccc2c(C3=NCCO3)c[nH]c2c1 was read as GIV Gai3 FP 101.1.
`CCOC(=O)c1c(C)n(C2CC2)c2ccc(O)cc12` gave GIV Gai3 FP 104.9.
Screening COc1ccc(N2C(=O)NC(=O)/C(=C\c3cn(CC(=O)Nc4ccccc4)c4ccccc34)C2=O)cc1 returned GIV Gai3 FP 88.7.
Screening CCOc1ccc(N2C(=O)NC(=O)/C(=C/c3cn(CC(=O)Nc4ccccc4)c4ccccc34)C2=O)cc1 returned GIV Gai3 FP -4.9*.
For CCN1C(=O)NC(=O)/C(=C\c2cn(CC(=O)N3CCCC3)c3ccccc23)C1=O the results were GIV Gai3 FP 98.4.
For CC(=O)OCC1O[C@@H](n2cc(N(CCCl)CCCl)c(=O)[nH]c2=O)C(OC(C)=O)[C@H](OC(C)=O)[C@@H]1OC(C)=O (some centres undefined) the results were GIV Gai3 FP 121.4.
CCCCn1c(C)c(C(=O)OCC)c2cc(OC(=O)c3cccc4ccccc34)c3ccccc3c21 was read as GIV Gai3 FP 99.8.
Screening CCOC(=O)c1c(C)n(Cc2ccccc2)c2ccc(OC(=O)c3ccccc3Cl)cc12 returned GIV Gai3 FP 100.0.
COc1ccc2c(c1)C1(CCN(C(=O)NC(C)C)C1)C(=O)N2 (centres undefined) was read as GIV Gai3 FP 109.6.
C=CCN1C(=O)NC(=O)/C(=C\c2ccccc2)C1=O was read as GIV Gai3 FP 97.8.
`O=C1NC(=O)N(Cc2ccccc2)C(=O)/C1=C\c1ccccc1` gave GIV Gai3 FP 15.0*, GIV Gai FP conf 30.5* and GIV-Gai AS conf 14998*.
O=C1NC(=O)N(Cc2ccccc2)C(=O)/C1=C/c1ccc(O)cc1 was read as GIV Gai3 FP 111.0.
Screening CCCOc1cc(C)cc2oc(=O)c3c(c12)CCCC3 returned GIV Gai3 FP 105.3.
`O=C(O)C(Cc1cnc[nH]1)N1C(=O)c2ccccc2C1=O` (centres undefined) gave GIV Gai3 FP 98.9.
O=C1NC(=O)N(c2ccccc2)C(=O)/C1=C/c1ccco1 was read as GIV Gai3 FP 102.4.
`O=C1NC(=S)NC(=O)C1=Cc1ccco1` gave GIV Gai3 FP 72.9*, GIV Gai FP conf 57.1* and GIV-Gai AS conf 5695*.
Screening CN1C(=O)NC(=O)/C(=C/c2ccco2)C1=O returned GIV Gai3 FP 99.6.
CC1=C(C(=O)OC(C)(C)C)C2(C(=O)Nc3ccc(Cl)cc32)C(C#N)=C(N)O1 (centres undefined) was read as GIV Gai3 FP 108.0.
Screening CC(=O)OCc1ccoc1C[N+](C)(C)C returned GIV Gai3 FP 108.0.
`O=C1NC(=O)C(=Cc2ccc(OCc3ccc([N+](=O)[O-])cc3)c(Br)c2)C(=O)N1` gave GIV Gai3 FP 101.5.

The closing two records of the part before are carried over, then new ones follow:
Screening CC(=O)OCc1ccoc1C[N+](C)(C)C returned GIV Gai3 FP 108.0.
`O=C1NC(=O)C(=Cc2ccc(OCc3ccc([N+](=O)[O-])cc3)c(Br)c2)C(=O)N1` gave GIV Gai3 FP 101.5.
CCCCn1c(=O)c(C(=O)Nc2nc(CC(=O)OCC)cs2)c(O)c2ccccc21 was read as GIV Gai3 FP 106.5.
Cn1c(=O)c2ncnnc2n(C)c1=O was read as GIV Gai3 FP 77.3*, GIV Gai FP conf 58.4* and GIV-Gai AS conf 35976.
Screening COC(=O)C1C(=O)NC2(C)CC1c1ccccc1O2 (centres undefined) returned GIV Gai3 FP 105.7.
O=C(Nc1nccs1)c1cccn(Cc2cccc(Cl)c2)c1=O was read as GIV Gai3 FP 108.4.

3 compounds out of the list, arranged by heavy-atom count, rising.
Cn1c(=O)c2ncnnc2n(C)c1=O was read as GIV Gai3 FP 77.3*, GIV Gai FP conf 58.4* and GIV-Gai AS conf 35976.
O=C(Nc1nccs1)c1cccn(Cc2cccc(Cl)c2)c1=O was read as GIV Gai3 FP 108.4.
`O=C1NC(=O)C(=Cc2ccc(OCc3ccc([N+](=O)[O-])cc3)c(Br)c2)C(=O)N1` gave GIV Gai3 FP 101.5.
